Tested on: PC-3
Test: Cytotoxicity against human PC3 cells after 48 hrs by MTT assay
Type: functional, cell-based

SMILES: COc1ccccc1C1C2=C(N=c3s/c(=C\c4ccc(-c5cccc(C(=O)O)c5)cc4)c(=O)n31)c1ccccc1CC2 (configuration not stated)
- Activity: Dose-dependent effect

SMILES: COc1ccccc1C1C=C(c2ccccc2)N=c2s/c(=C\c3cccc(OCC(=O)O)c3)c(=O)n21 (configuration not stated)
- Activity: Dose-dependent effect

SMILES: O=C(O)COc1cccc(/C=c2\sc3n(c2=O)C(c2ccccc2)C2=C(N=3)c3ccccc3CC2)c1 (configuration not stated)
- Activity: Dose-dependent effect

SMILES: O=C(O)c1cccc(-c2ccc(/C=c3\sc4n(c3=O)C(c3ccccc3)C3=C(N=4)c4ccccc4CC3)o2)c1 (configuration not stated)
- Activity: Dose-dependent effect

SMILES: COc1ccccc1C1C2=C(N=c3s/c(=C\c4ccc(OCC(=O)O)cc4)c(=O)n31)c1ccccc1CC2 (configuration not stated)
- Activity: Dose-dependent effect

SMILES: O=C(O)COc1cccc(/C=c2\sc3n(c2=O)C(c2cccc(F)c2)C2=C(N=3)/C(=C/c3cccc(F)c3)CCC2)c1 (configuration not stated)
- Activity: Dose-dependent effect

SMILES: CCOC(=O)COc1cccc(/C=c2\sc3n(c2=O)C(c2ccccc2OC)C2=C(N=3)c3ccccc3CC2)c1 (configuration not stated)
- Activity: Dose-dependent effect

SMILES: O=C(O)COc1cccc(/C=c2\sc3n(c2=O)C(c2cccc4ccccc24)C2=C(N=3)c3ccccc3CC2)c1 (configuration not stated)
- Activity: Dose-dependent effect

SMILES: O=C(O)c1cccc(-c2ccc(/C=c3\sc4n(c3=O)C(c3ccccc3F)C3=C(N=4)c4ccccc4CC3)o2)c1 (configuration not stated)
- Activity: Dose-dependent effect

SMILES: COc1ccccc1C1C2=C(N=c3s/c(=C\c4ccc(C(=O)O)cc4)c(=O)n31)c1ccccc1CC2 (configuration not stated)
- Activity: Dose-dependent effect

SMILES: COc1ccccc1C1C2=C(N=c3s/c(=C\c4ccc(-c5cccc(C(=O)O)c5)o4)c(=O)n31)c1ccccc1CC2 (configuration not stated)
- Activity: Dose-dependent effect

SMILES: O=C(O)c1cccc(-c2ccc(/C=c3\sc4n(c3=O)C(c3cccc(F)c3)C3=C(N=4)/C(=C/c4cccc(F)c4)CCC3)o2)c1 (configuration not stated)
- Activity: Dose-dependent effect

Reference: ChEMBL document CHEMBL1157133, “Design, synthesis, and interaction study of quinazoline-2(1H)-thione derivatives as novel potential Bcl-xL inhibitors” (J Med Chem, 2010)
